Only a part is listed here, and it is no random draw. Some tests of the compounds listed are not included; inactive here does not mean inactive elsewhere. Activity calls are given as the source filed them. Rule as the data show it: active = inhibition above about 43%; inactive = the rest.
molecular target: Prolyl endopeptidase-like (Homo sapiens) (UniProt Q4J6C6); test: human PREPL enzyme inhibitors, confirmation, biochemical, fluorescence polarization (AID 2803); conditions: recombinant PREPL, fluorescence polarization activity probe; at 5.96 µM; active compounds read high;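 also: 0% = protein with DMSO and 100% = wells lacking protein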

Sequences of proteins named here, by UniProt entry; tags and fusion partners are left off.
UniProt Q4J6C6, whole entry: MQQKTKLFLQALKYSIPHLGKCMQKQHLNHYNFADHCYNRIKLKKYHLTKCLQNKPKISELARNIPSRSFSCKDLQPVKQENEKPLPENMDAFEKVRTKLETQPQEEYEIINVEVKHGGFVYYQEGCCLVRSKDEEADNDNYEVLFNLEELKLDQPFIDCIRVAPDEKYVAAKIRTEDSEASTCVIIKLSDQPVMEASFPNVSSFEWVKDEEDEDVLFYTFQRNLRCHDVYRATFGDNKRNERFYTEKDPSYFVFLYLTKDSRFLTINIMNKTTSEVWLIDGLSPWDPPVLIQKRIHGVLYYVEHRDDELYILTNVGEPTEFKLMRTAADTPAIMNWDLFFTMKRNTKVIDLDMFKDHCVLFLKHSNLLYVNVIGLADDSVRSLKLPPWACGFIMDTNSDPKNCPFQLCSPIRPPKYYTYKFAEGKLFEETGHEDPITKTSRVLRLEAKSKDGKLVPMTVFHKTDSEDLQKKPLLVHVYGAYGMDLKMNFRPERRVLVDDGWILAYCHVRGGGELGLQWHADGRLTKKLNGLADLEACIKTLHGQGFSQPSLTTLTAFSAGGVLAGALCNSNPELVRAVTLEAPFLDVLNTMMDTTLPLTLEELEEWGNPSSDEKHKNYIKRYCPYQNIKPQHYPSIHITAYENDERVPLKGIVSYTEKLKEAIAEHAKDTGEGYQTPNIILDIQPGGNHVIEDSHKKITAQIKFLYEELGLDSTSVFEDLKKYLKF

| Structure (SMILES) | inhibition |
| --- | --- |
| CCN(CC)CC(C)C(C)OC(=O)C(O)(c1ccccc1)c1ccccc1 (stereo unspecified) | inactive: 38.2% |

Reference: PubChem BioAssay AID2803 (The Scripps Research Institute Molecular Screening Center, 2010)
